Read-outs that look alike come from different tables or passages of the source.
[1] = 3 mg warfarin oral + 750 mg apatinib daily, N=20, GMean (CV%)
[2] = 3 mg warfarin oral, alone, N=23, GMean (CV%)

CC(=O)C[C@@H](c1ccccc1)c1c(O)c2ccccc2oc1=O [S-Warfarin, S-warfarin]
AUC0-t [1]: 7980 (25.8) h×ng/mL
Cmax [1]: 234 (19.2) ng/mL
AUC0-t [2]: 4210 (25.5) h×ng/mL
Cmax [2]: 194 (21.2) ng/mL
